Measurements reported in ChEMBL document CHEMBL1138063, “Imidazole-dioxolane compounds as isozyme-selective heme oxygenase inhibitors” (J Med Chem, 2006).

Protein sequences, listed by entry. Tags and fused reporters are not part of them. Lines headed by an entry give the natural chain unless they say otherwise; changes in a name come on top.
UniProt P05182: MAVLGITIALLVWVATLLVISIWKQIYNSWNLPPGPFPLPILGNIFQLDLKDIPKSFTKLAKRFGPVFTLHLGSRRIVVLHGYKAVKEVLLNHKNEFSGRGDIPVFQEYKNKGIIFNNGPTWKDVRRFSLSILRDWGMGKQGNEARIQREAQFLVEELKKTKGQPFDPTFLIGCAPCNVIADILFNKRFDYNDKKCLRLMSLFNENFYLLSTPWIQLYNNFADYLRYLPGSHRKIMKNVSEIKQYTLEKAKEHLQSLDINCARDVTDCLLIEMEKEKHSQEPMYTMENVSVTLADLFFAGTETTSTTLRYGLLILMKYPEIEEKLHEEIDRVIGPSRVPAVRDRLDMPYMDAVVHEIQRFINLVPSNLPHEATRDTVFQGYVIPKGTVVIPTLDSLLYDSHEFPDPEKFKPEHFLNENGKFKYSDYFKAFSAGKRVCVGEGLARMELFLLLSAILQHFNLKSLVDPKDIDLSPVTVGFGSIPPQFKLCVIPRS

Target: Cytochrome P450 2E1 (Rattus norvegicus, UniProt P05182)
Test: Inhibition of rat liver CYP2E1
Type: ADME, tissue-based
Procedure, shortened: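 Rat liver microsomal CYP2E1 activity was read as p-nitrophenol hydroxylation, by spectrophotometric measurement of 4-nitrocatechol. Activity at several inhibitor concentrations (HCl salts) was expressed as percent of control. IC50 came from a nonlinear sigmoidal dose-response fit of each of two or three replicate curves.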

Clc1ccc(CCC2(Cn3ccnc3)SCCS2)cc1
IC50: 14 µM
